{
  "source": "patent US20250177532A1",
  "about": "“TEMPERATURE-SENSITIVE HYDROGEL FOR CANCER TREATMENT CAPABLE OF PHOTOTHERMAL THERAPY AND PREPARATION METHOD THEREFOR” (KOREA NATIONAL UNIVERSITY OF TRANSPORTATION …, priority 2022, published 2025)",
  "tested_on": "4T1 cells",
  "details": "different concentrations, 24 hours, no irradiation",
  "data": [
    {"smiles": "Cc1ccc2c(=O)c3cccc(CC(=O)O)c3oc2c1C", "note": "[DMXAA, 5,6-dimethylxanthenone-4-acetic acid]", "values": [
      {"measurement": "biological toxicity to cells (WST-1 analysis)", "result": "no remarkable biological toxicity"}
    ]}
  ]
}
